System: mosquito larvae
Test: Feeding TMOF and its analogue peptides to mosquito larvae (LD50)
Type: in vivo, Aedes aegypti
Settings: 100 μl microtiter plates, 7 days, diet of autoclaved yeast (1 mg/ml)
Excerpt: TMOF can traverse the gut epithelium, enter the hemolymph and bind a gut receptor (Borovsky, D. and F. Mahmood (1995) “Feeding the mosquito Aedes aegypti with TMOF and its analogs; effect on trypsin biosynthesis and egg development,” Regulatory Peptides 57:273-281.; Borovsky, D., C. A. Powell, J. K. Nayar, J. E. Blalock, and T. K. Hayes (1994) “Characterization and localization of mosquito-gut receptors for trypsin modulating oostatic factor using complementary peptide immunochemistry” FASEB J. 8:350-355.). […] This characteristic permits testing of TMOF and its analogs by feeding them to mosquito and other pest larvae. To determine whether truncated TMOF peptides have an effect on larval growth and development, a series of peptides were synthesized and tested by feeding them to mosquito larvae at concentrations of 0.5 to 5.0 mg/ml (Table 1). Individual, newly hatched Aedes aegypti larvae were maintained in separate microtiter wells on a diet of autoclaved yeast (1 mg/ml). The diet was supplemented with TMOF peptides (Table 1). An identical number of larvae which were maintained on yeast served as a control. […] All control groups survived and larval growth and development was normal. Since larvae swallow only a small portion of the yeast particles that adsorbed the peptides, it is assumed that approximately 1 to 20 ng are taken orally at the high concentrations.

Substance | LD50 mM ± S.E.M.
DY: TMOF analogue peptide, SEQ ID NO. 23 (TMOF peptide) | 3 3.0 ± 0.8 mM
YD: TMOF analogue peptide, SEQ ID NO. 35 (TMOF peptide) | 3 1.24 ± 0.06 mM

From patent publication US6635265B1, “Materials and methods useful for the control of insect larvae” (University of Florida Research Foundation, Inc., priority 1999, dated 2003)
